Experimental data taken from ChEMBL document CHEMBL4024727, “Synthesis and antimycobacterial screening of new thiazolyl-oxazole derivatives” (Eur J Med Chem, 2017).

Columns and labels:
[1] = Selectivity index, ratio of GI50 for human HeLa cells to MIC for Mycobacterium tuberculosis H37Ra ATCC 25177 dormant stage; type: toxicity, cell-based; conditions: read-out: Selectivity Index
[2] = Selectivity index, ratio of GI50 for human HeLa cells to MIC for Mycobacterium bovis BCG ATCC 35743 dormant stage; type: toxicity, cell-based; conditions: read-out: Selectivity Index

In the case of `CO[C@H]1/C=C/O[C@@]2(C)Oc3c(C)c(O)c4c(O)c(c(/C=N/N5CCN(C)CC5)c(O)c4c3C2=O)NC(=O)/C(C)=C\C=C\[C@H](C)[C@H](O)[C@@H](C)[C@@H](O)[C@@H](C)[C@H](OC(C)=O)[C@@H]1C` [RIFAMPIN], the selectivity ratio [1] is reported as 133 and the selectivity ratio [2] is reported as 123.
